Data published in patent US20020123614A1.

Key:
iC3b coated on plastic [1] = target: iC3b coated on plastic (UniProt P01024); assay: cell adhesion to immobilized iC3b; -DTT, +activation
iC3b coated on plastic [2] = target: iC3b coated on plastic (UniProt P01024); assay: cell adhesion to immobilized iC3b; +DTT, -activation
iC3b coated on plastic [3] = target: iC3b coated on plastic (UniProt P01024); assay: cell adhesion to immobilized iC3b; +DTT, +activation
iC3b coated on plastic [4] = target: iC3b coated on plastic (UniProt P01024); assay: cell adhesion to immobilized iC3b; -DTT, -activation

Substance | percent of binding by activated wild type transfectant (iC3b coated on plastic [1]) [%] | percent of binding by activated wild type transfectant (iC3b coated on plastic [2]) [%] | percent of binding by activated wild type transfectant (iC3b coated on plastic [3]) [%] | percent of binding by activated wild type transfectant (iC3b coated on plastic [4]) [%]
Mac-1 (αMβ2) mutant F297C/A304C (from UniProt P05107 23-769) (receptor) | 25 to 50 | – | – | –
Mac-1 (αMβ2) mutant Q163C/R313C (locked closed) (from UniProt P05107 23-769) (receptor) | – | 25 to 50 | – | –
Mac-1 (αMβ2) mutant Q163C/Q309C (locked open) (from UniProt P05107 23-769) (receptor) | 75 to 100 | 25 to 50 | 75 to 100 | 75 to 100
wild-type Mac-1 (αMβ2 heterodimer) (from UniProt P05107 23-769) (receptor) | 75 to 100 | 25 to 50 | 75 to 100 | 0 to 5
Mac-1 (αMβ2) mutant D294C/Q311C (locked open) (from UniProt P05107 23-769) (receptor) | 75 to 100 | 25 to 50 | 75 to 100 | 75 to 100
